In patent US20230390279A1, “COMPOSITION AND METHOD FOR TREATING CANCER” (NOVMETAPHARMA CO., LTD., priority 2022, published 2023) one finds ROS data, which are given here for one molecule.

The structures appear in SMILES notation.

For assay [1], the system named is sorafenib-resistant liver cancer cell line SK-Hep-R. As to conditions: sorafenib 10 μM and DN200434 12 μM, 24 hours, FIG. 3B.
The subject of assay [2] is sorafenib-resistant liver cancer cell line Huh7-SR. As to conditions: sorafenib 10 μM and DN200434 12 μM, 24 hours, FIG. 3A.

Take `CC(C)N1CCN(c2ccc(/C(=C(/CCCO)c3ccccc3)c3ccc(O)cc3)cc2)CC1` [DN434, (E)-5-(4-hydroxyphenyl)-5-(4-(4-isopropylpiperazin-1-yl)phenyl)-4-phenylpent-4-en-1-ol]: the ROS entry in assay [1] and in assay [2] was “increase in ROS” throughout.
